Patent US20250387388A1, “COMPOUND AS TRK INHIBITOR AND/OR RET INHIBITOR AND USE THEREOF” (Medinno Pharmaceutical Technology (Zhuhai) Co., Ltd., priority 2022, published 2025)

Tested on: chronic obstructive pulmonary disease model in rats

## CCc1cc(O)c(F)cc1-c1ccc2c(-c3nc4c([nH]3)CN(C(=O)C3CC3)C4)n[nH]c2c1 [MDI-1233, cyclopropyl (2-(6-(2-ethyl-5-fluoro-4-hydroxyphenyl)-1H-indazol-3-yl)pyrrolo[3,4-d]imidazol-5(1H,4H,6H)-yl)ketone]
MDI-1233 1, 3, 10 mg/kg
  Therapeutic effect on the COPD model in rats: dose-dependent therapeutic effect
MDI-1233 1, 3, 10 mg/kg nasal drops twice a day, 30 days, positive control 0.1 mg/kg/d
  IL-1β in serum and alveolar lavage fluid (ELISA): could also down-regulate its expression
MDI-1233 1, 3, 10 mg/kg nasal drops twice a day, 30 days, positive control 0.1 mg/kg/d, vs. COPD model group
  Lung tissue morphology and inflammatory cell infiltration (HE staining): reduced compared to the COPD model group
high-dose MDI-1233 (10 mg/kg) nasal drops twice a day, 30 days
  Lung tissue morphology and inflammatory cell infiltration (HE staining): showed the best effects

Where two headings read alike, the source gives them in different places.
